Source: BindingDB's records for patent US12473298 (Shanghai Synergy Pharmaceutical Sciences Co., 2025)

Chains of the proteins cited; added tags and fusions are not shown.
UniProt Q15910, whole entry A677G/A687V: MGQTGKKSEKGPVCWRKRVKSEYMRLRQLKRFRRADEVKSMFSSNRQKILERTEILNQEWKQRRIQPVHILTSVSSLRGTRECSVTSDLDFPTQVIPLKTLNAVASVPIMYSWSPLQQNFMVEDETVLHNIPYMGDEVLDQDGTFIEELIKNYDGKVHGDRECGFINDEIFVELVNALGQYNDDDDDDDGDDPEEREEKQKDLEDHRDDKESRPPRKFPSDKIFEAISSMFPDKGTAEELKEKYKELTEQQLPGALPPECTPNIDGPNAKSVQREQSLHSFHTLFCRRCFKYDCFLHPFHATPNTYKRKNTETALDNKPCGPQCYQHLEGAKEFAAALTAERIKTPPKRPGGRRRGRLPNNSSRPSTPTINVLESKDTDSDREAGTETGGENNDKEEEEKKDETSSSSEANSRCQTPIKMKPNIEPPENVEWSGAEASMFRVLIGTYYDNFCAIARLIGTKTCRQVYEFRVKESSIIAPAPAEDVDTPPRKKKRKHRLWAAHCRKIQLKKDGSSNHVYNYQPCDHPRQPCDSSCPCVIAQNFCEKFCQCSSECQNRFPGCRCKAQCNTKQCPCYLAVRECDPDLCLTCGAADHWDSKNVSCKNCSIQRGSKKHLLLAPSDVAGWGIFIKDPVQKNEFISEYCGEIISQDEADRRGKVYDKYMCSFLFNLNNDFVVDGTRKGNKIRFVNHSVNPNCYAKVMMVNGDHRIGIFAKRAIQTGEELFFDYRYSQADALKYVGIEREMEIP
UniProt Q15910, whole entry Y641F: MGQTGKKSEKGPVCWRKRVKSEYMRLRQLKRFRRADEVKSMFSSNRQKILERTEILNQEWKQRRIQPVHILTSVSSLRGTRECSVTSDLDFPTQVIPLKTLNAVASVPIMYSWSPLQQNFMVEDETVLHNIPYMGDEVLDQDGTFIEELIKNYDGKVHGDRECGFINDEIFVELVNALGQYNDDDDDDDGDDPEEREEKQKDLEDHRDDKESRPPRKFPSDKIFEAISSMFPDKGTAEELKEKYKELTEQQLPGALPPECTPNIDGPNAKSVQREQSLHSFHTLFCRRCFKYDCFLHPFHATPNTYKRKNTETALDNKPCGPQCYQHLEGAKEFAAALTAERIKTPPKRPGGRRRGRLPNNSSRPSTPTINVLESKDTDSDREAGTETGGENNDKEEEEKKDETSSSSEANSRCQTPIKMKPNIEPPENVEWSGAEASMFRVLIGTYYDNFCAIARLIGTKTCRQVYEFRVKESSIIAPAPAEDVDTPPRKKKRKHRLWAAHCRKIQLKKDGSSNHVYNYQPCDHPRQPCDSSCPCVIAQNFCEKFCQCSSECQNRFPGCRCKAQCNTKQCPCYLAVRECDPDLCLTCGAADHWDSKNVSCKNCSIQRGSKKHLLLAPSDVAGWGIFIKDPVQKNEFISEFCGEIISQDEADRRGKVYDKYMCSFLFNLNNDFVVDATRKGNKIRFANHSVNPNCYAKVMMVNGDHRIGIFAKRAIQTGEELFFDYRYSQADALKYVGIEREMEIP
UniProt Q15910, whole entry Y641N: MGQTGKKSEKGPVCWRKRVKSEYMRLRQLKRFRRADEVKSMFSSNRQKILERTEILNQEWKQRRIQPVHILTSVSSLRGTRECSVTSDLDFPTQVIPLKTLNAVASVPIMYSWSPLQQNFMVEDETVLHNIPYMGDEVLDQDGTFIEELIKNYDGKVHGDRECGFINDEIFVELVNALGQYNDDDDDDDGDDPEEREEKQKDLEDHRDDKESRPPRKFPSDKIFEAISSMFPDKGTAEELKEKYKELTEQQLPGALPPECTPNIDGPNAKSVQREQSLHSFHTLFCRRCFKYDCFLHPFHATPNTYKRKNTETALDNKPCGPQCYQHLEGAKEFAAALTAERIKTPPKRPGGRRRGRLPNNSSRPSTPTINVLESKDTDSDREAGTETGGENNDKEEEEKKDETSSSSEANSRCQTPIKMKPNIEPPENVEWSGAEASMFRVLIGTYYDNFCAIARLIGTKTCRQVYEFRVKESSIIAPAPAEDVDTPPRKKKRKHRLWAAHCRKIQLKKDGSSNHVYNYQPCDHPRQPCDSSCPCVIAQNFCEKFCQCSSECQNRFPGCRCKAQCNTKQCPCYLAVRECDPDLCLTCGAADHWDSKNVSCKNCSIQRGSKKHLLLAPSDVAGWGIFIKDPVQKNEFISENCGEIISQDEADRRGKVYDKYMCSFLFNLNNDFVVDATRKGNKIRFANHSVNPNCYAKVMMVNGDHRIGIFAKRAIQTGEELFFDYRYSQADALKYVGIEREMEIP
UniProt Q15910, whole entry: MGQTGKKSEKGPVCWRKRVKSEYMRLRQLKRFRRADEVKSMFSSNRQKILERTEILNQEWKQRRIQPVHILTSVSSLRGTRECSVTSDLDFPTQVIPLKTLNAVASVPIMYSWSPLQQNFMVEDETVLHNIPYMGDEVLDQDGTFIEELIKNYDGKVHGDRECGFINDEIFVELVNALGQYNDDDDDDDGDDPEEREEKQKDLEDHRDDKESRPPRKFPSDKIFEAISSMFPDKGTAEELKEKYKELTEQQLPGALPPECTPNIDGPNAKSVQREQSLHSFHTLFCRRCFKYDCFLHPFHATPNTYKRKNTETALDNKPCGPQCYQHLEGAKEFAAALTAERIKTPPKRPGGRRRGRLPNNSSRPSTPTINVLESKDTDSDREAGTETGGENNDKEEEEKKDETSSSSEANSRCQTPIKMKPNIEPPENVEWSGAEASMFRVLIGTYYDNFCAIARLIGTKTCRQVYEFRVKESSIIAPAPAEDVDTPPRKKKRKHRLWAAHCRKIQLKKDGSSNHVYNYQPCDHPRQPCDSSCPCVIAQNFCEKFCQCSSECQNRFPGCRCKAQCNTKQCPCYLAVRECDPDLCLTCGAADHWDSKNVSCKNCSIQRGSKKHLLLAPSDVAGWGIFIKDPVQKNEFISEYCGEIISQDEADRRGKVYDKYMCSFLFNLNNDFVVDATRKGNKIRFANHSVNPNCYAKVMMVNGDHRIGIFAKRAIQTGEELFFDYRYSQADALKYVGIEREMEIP

Tests used:
[1] = target: Histone-lysine N-methyltransferase EZH2 [A677G] (Homo sapiens, UniProt Q15910, A677G)
[2] = target: Histone-lysine N-methyltransferase EZH2 [Y641F] (Homo sapiens, UniProt Q15910, Y641F)
[3] = target: Histone-lysine N-methyltransferase EZH2 [Y641N] (Homo sapiens, UniProt Q15910, Y641N)
[4] = target: Histone-lysine N-methyltransferase EZH2 (Homo sapiens, UniProt Q15910)

SMILES	IC50 [1] [nM]	IC50 [2] [nM]	IC50 [3] [nM]	IC50 [4] [nM]
CCN(c1cc(-c2ccc3c(c2)N(C(C)C)CC32CCOCC2)cc(C(=O)NCc2c(C)cc(C)[nH]c2=O)c1C)C1CCOCC1 [US12473298, Compound 25]	0.14	0.29	0.09	0.33
CCN(c1cc(-c2ccc3c(c2)N(C(C)C)C(=O)C32CCOCC2)cc(C(=O)NCc2c(OC)cc(C)[nH]c2=O)c1C)C1CCOC(C)(C)C1 (stereo not given) [US12473298, Compound 64]	0.46			
CCCN1C(=O)C2(CCOCC2)c2ccc(-c3cc(N(CC)C4CCOCC4)c(C)c(C(=O)NCc4c(C)cc(C)[nH]c4=O)c3F)cc21 [US12473298, Compound 58]		0.47	0.19	0.62
CCN(c1cc(-c2ccc3c(c2)N(C)C(=O)C32CCN(C(F)(F)C(F)(F)F)CC2)cc(C(=O)NCc2c(C)cc(C)[nH]c2=O)c1C)C1CCOCC1 [US12473298, Compound 44]		0.75		0.91
